Ab-14 light chain CDR variants: yeast mating affinities

The measurements come from Li et al. 2023 (doi:10.1038/s41467-023-39022-2) through the FLAb antibody collection.

Target: peptide PDVDLGDISGINAS, taken from heptad repeat 2 (HR2) of SARS-CoV-2 spike.

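The starting antibody came from a phage panning campaign against this peptide. The variants were designed computationally from a first round of random CDR variants and then made and measured. Several design methods are mixed in this list. AlphaSeq pools MATa yeast showing the antibodies with MATalpha yeast showing the peptide. Binding brings cells together so that they mate, and sequencing counts the barcode pairs among the diploids. Scores were corrected for input abundance and mapped to Kd with protein pairs of known affinity run in the same pool. There are six technical replicates.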

Parent scFv Ab-14: VH joined to VL by a 15-residue (Gly4Ser)3 linker. Changes lie in the light chain CDRs alone.
VH: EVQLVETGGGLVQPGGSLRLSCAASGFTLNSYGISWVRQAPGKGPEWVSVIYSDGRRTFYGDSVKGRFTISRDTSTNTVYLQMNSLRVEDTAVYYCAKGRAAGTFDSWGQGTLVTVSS
VL: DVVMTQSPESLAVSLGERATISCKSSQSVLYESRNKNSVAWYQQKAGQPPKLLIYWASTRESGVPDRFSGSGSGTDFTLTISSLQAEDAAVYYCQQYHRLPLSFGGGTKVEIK

The parent's light chain CDRs are KSSQSVLYESRNKNSVA, WASTRES, QQYHRLPLS; each variant's own CDRs replace them letter for letter.
Affinities are written as log10 Kd with Kd in nM; a lower number is a better binder.
A mean of the replicates is given; it leaves out those without a signal.
An entry "no signal" has no value in the source: the pair was not observed among the diploids in any replicate. This suggests poor binding but is not conclusive.

| CDR-L1 | CDR-L2 | CDR-L3 | mean log10 Kd (nM) | replicates with signal | control signals |
|---|---|---|---|---|---|
| HLGLATMLEETVRNSVA | NNSTRED | QQYDRLPLS | 0.96 | 6 of 6 | 1 of 18 |
| KGSQSVLYESRNKNSVA | KASTREE | QQYHRLPLS | 0.17 | 6 of 6 | 2 of 18 |
| KLSFSNGYEDRNKNSVA | QASQRLM | QQYHRLPLS | 0.30 | 6 of 6 | 0 of 18 |
| KFSQSVLYESRNKNAVA | DASTRES | QMYHWLPLS | 1.06 | 6 of 6 | 1 of 18 |
| KISMLQRFQSDAKNNIA | EMSRREE | QQYHRLPLS | 0.02 | 6 of 6 | 1 of 18 |
| HFSQSVLYESRNKNSVA | NASTRES | QQYHRLPLS | -0.12 | 6 of 6 | 1 of 18 |
| KVSQSTLYEEANFNSVA | WASTRES | YQYHRLPLS | no signal | 0 of 6 | 0 of 18 |
| KLSQSELYESRNKNNVA | EASTRED | QQYHRLPLS | -0.53 | 6 of 6 | 0 of 18 |
| KVSEFMKGLMMRKDNIA | DNNTRQN | QQYDRLPLS | 0.88 | 6 of 6 | 1 of 18 |
| KSSQSCLYESRNKNSVA | QASTRES | QQYHPLPLL | 2.71 | 1 of 6 | 0 of 18 |
| IVSQSVMGETRNKNSVA | QTSERNY | QQYDRLPLS | 0.82 | 6 of 6 | 2 of 18 |
| KLNISDGYEQRNKNSVA | EASTRCD | QQYHRLPLS | -0.09 | 6 of 6 | 0 of 18 |
| VSSPSVLYESRNKNSVA | NASTRWS | QQYHRLPLS | 0.77 | 6 of 6 | 0 of 18 |
| KSSGVYLYESRNKNSVA | GASTRES | QQYHRLPLS | -0.11 | 6 of 6 | 0 of 18 |
| KLQNFSQEHNGMWNSIA | DETMKHT | QHYIRLPLV | 2.38 | 6 of 6 | 1 of 18 |
| KVSYSVEYEDRNKNSVA | QASQRNS | QQYHRLPLS | 0.32 | 6 of 6 | 0 of 18 |
| SIEWEEWNGQSVGHNIA | ADTQVLE | QQYFRLPFT | 1.29 | 6 of 6 | 1 of 18 |
| KQSQSVLFEWRNKNSVA | DASTRES | QQYHRLPLS | -0.18 | 6 of 6 | 0 of 18 |
| ILSQSVLLGMHTKNSVA | QATMRFN | QQYHRLPLM | 1.77 | 2 of 6 | 0 of 18 |
| DLTGMFNLAGQQQHSIA | NGGIKIE | QQYNRLPLA | 0.97 | 6 of 6 | 0 of 18 |
| KVSQSYLYESRNKNSVA | NASTRES | QDYHRLPLS | 0.06 | 6 of 6 | 1 of 18 |
| KLSQSWPGEERNKNSVA | SASTREQ | QQYHRLPLS | 0.23 | 6 of 6 | 0 of 18 |
| KFSQSVLMESTTKNSVA | NASTRES | QQYHRLPLS | 0.26 | 6 of 6 | 0 of 18 |
| KLVQSVLYESRNKNSVA | NASQRES | QQYHRLPLS | -0.36 | 6 of 6 | 0 of 18 |
| KCQISDEQESRQKNSVA | HASTRES | QQYHRLPLS | 0.33 | 6 of 6 | 1 of 18 |
| KVSQSMDYESRNKNSVA | DASTRES | QQYHRLPLS | -0.14 | 6 of 6 | 0 of 18 |
| KSSQSVMFESRNKNSVA | DASTRES | QQYHRLPLS | 0.11 | 6 of 6 | 0 of 18 |
| MISQMYNMGQFAINSVA | QASERNE | QQYDRLPLM | 1.65 | 4 of 6 | 0 of 18 |
| MMSQVTGMGQRHRNNVA | QTSEREP | QQYDRLPLI | 0.88 | 6 of 6 | 2 of 18 |
| KLEQSTLYESRNKNSVA | NASTRMS | QQYHRLPLS | -0.06 | 6 of 6 | 1 of 18 |
| HISQSVAMTSRNKNSVA | ENSTRED | QQYDRLPLS | 1.80 | 5 of 6 | 0 of 18 |
| KLSQSEPYESRNKNSVA | NASYRCS | QQYHRLPLH | 1.11 | 6 of 6 | 1 of 18 |
| KLEQSVLYESRNKNSVA | NASQRLS | QQYHRLPLS | -0.11 | 6 of 6 | 0 of 18 |
| KVSQSVLYESRNKNSVA | WASTRES | QQYHRMPYS | 2.31 | 6 of 6 | 0 of 18 |
| KAQDGELYESRDWNSVA | DASKRLS | QQYHRLPLS | 0.12 | 6 of 6 | 1 of 18 |
| QLYAVQDMTTKNKNSVA | EQSTREN | QQYHRLPLS | 0.94 | 6 of 6 | 0 of 18 |
| SMSNAQFNPDNWKNSIA | DAEHVAY | QQYSRLPLT | -0.20 | 6 of 6 | 0 of 18 |
| RSSQSVLYESRNKNSVA | EASERES | QQYHRLPLS | 0.52 | 6 of 6 | 0 of 18 |
| KCSQSVLFEWRNKNSVA | DASTRES | QQYHRLPLS | -0.06 | 6 of 6 | 1 of 18 |
| KSSQSWLSEERNKNSVA | WAYTRES | QQYHRLPLS | 1.90 | 1 of 6 | 0 of 18 |
| SISGFMKSLSAHINNVA | DMTNRED | QQYERLPLS | 0.78 | 6 of 6 | 2 of 18 |
| SVQYFPEESLRGASAIA | DVNIKVM | QQYSRLPLA | 0.36 | 6 of 6 | 1 of 18 |
| MITEGQLGENKNSSNIA | SQNIKTD | QQYQRLPLT | 0.59 | 6 of 6 | 2 of 18 |
| KTQNNVLYESHNKNSVA | WASTREN | QQYHRLPLS | 1.70 | 6 of 6 | 0 of 18 |
| KLSIMYQHTSRQKNNIA | ERSTREE | QQYHHLPLS | 0.99 | 6 of 6 | 2 of 18 |
| KLSQSVLYESRNPNSVA | NASTRLS | QQYHRLPLS | -0.37 | 6 of 6 | 1 of 18 |
| KMSQSWLGEDWNKNSVA | QASQRMS | QQYHRLPLS | 0.43 | 6 of 6 | 1 of 18 |
| KWAQSVLYESRNKNSVA | WASTRES | QQYHMLPLS | 2.20 | 2 of 6 | 0 of 18 |
| KIGGTLNTLMHQKNNVA | DLVEREN | QQYFRLPLS | 0.18 | 6 of 6 | 0 of 18 |
| KLMQSVLYESRNKNSVA | GASTRED | QQYHRLPLS | 0.14 | 6 of 6 | 0 of 18 |
| SVRQSMDGESRNKNSVA | HQSTRED | QHYHRLPLS | 1.56 | 6 of 6 | 2 of 18 |
| KLKQSDLYESRNKNSVA | EASTRES | QQYHRLPLS | -0.03 | 6 of 6 | 0 of 18 |
| KFMYSLEYQMHEQNNIA | HGEISTV | QQYSRLPIY | 1.20 | 1 of 6 | 0 of 18 |
| KSQGSVLYESRNSNSVA | NASTREL | QDYHRLPLS | 0.44 | 6 of 6 | 0 of 18 |
| KQSQSVLGESRNCNSVA | DASTRES | QQYVRLPLS | 0.52 | 6 of 6 | 0 of 18 |
| KLSGLMASSKFAKDNVA | ENNTREK | QQYDRLPLS | 2.17 | 6 of 6 | 1 of 18 |
| HLSANMWMESSMWDAVA | QGDIAMN | QDYSRLPLS | 2.38 | 6 of 6 | 0 of 18 |
| QLSGITGHLSMIKNNVA | EMETREN | QQYERLPLS | 1.12 | 6 of 6 | 0 of 18 |
| SLAESVHMESRNKNSVA | DNSTREY | QHYHRLPLS | 4.49 | 1 of 6 | 0 of 18 |
| KMSQSVLYESRNKNSVA | WASTRES | FQYHHLPLS | 2.39 | 3 of 6 | 1 of 18 |
| TIGQSLMQGIRNRSNVA | EVSQRLN | QQYDRLPLF | 2.10 | 6 of 6 | 1 of 18 |
| KSSQSVLYESRNKNSVA | WASTRIS | QQYHRGPLS | no signal | 0 of 6 | 0 of 18 |
| KLSQSVLYESRNKNSVA | SASTRYS | QQYHRLPLS | -0.01 | 6 of 6 | 0 of 18 |
| KVSQSNLYESRNKNSVA | DASTRES | QQYHRLPLS | -0.16 | 6 of 6 | 0 of 18 |
| KSSQSVVYESREKNSVA | GASTRED | QQYHRLPLS | 0.08 | 6 of 6 | 1 of 18 |
| KLDQWQLGESRNKNSVA | SASTRCS | QQYHRLPLS | 0.11 | 6 of 6 | 1 of 18 |
| RLRFQDLGWSYDANNIA | GATLSIK | QQYGRLPLT | 0.84 | 6 of 6 | 2 of 18 |
| KSSISYLYESRNVNSVA | EASTREQ | QQYHRLPLS | 0.29 | 6 of 6 | 2 of 18 |
| KLPQSVLYESRNKNSVA | DASTRED | QQYHRLPLS | -0.55 | 6 of 6 | 1 of 18 |
| TLYGLTNSMSKSKDNVA | EMSTREA | QQYDRLPLA | 0.76 | 6 of 6 | 0 of 18 |
| MINMEVGIEDMKWNSVA | SAHVRAF | QQYGRLPFS | 0.91 | 6 of 6 | 0 of 18 |
| HLSQSVDLESVHKNSIA | DLMTRES | QQYDRLPLS | 0.51 | 6 of 6 | 0 of 18 |
| SLAESVHMESRNKNSVA | DNSTREQ | QHYHRLPLS | 1.41 | 6 of 6 | 0 of 18 |
| KDSQSVLYESRSKNSVA | WASTRES | QQYHRLPLS | 2.57 | 2 of 6 | 1 of 18 |
| KSSQSVLYEDRNKNSVA | SASTRES | KQKQRLPTS | 2.27 | 2 of 6 | 1 of 18 |
| KSSQSDLYEDRVKNSVA | GASTRES | QQYHRLPLS | 0.58 | 6 of 6 | 0 of 18 |

Excerpt, the final 7 entries:

CDR-L1	CDR-L2	CDR-L3	mean log10 Kd (nM)	replicates with signal	control signals
TLYGLTNSMSKSKDNVA	EMSTREA	QQYDRLPLA	0.76	6 of 6	0 of 18
MINMEVGIEDMKWNSVA	SAHVRAF	QQYGRLPFS	0.91	6 of 6	0 of 18
HLSQSVDLESVHKNSIA	DLMTRES	QQYDRLPLS	0.51	6 of 6	0 of 18
SLAESVHMESRNKNSVA	DNSTREQ	QHYHRLPLS	1.41	6 of 6	0 of 18
KDSQSVLYESRSKNSVA	WASTRES	QQYHRLPLS	2.57	2 of 6	1 of 18
KSSQSVLYEDRNKNSVA	SASTRES	KQKQRLPTS	2.27	2 of 6	1 of 18
KSSQSDLYEDRVKNSVA	GASTRES	QQYHRLPLS	0.58	6 of 6	0 of 18

The authors' rule: three or more of the six replicates give a measured affinity, fewer mean a poor binder.
Three control strains display no target. For all light chain designs, 4% of the pairings with them gave a signal, with a median of 2.64 and one signal in twenty below 1.59, so weak values seen in few replicates may be background. For each scFv, signals with the empty controls are counted beside the result.
Values of this round are not directly comparable with the first-round values of the same sequences.